A word on the IC50: it is the concentration that inhibits the measured activity by half. Low readings indicate greater potency, high ones weaker potency.

The chains behind the UniProt entries cited, without tags or fusion partners.
UniProt P34972, whole entry: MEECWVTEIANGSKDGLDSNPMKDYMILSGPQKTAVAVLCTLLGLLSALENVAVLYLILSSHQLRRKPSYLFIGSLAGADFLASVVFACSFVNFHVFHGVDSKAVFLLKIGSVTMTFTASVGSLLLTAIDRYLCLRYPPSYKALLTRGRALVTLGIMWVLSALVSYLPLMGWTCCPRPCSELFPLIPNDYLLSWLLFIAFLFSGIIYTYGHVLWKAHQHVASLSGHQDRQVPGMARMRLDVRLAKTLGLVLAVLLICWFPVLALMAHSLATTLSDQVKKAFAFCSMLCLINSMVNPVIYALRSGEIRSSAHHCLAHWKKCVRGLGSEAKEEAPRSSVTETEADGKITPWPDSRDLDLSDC

The target of the experiment is T1, CB2R (Homo sapiens, UniProt P34972).
T1 construct: expressed in transfected cells; host or cells: HEK293 cells stably transfected with pIRES2-EGFP-CB2, pGL4.29 [luc2P/CRE/Hygro] and pRL-TK
Put plainly: forskolin-stimulated cAMP accumulation assay in HEK293-CB2 cells. The class given is cell-based. The method, then:
After treatment, the cell supernatant was diluted with PBS (pH 7.2–7.4). The cells were lysed by repeated freeze–thaw cycles and being centrifuged for 20 min at 2000–3000 r.p.m. The concentration of cAMP in the cell lysate was determined according to the instructions of the cAMP kit.

Consider `CCCCCCC(C)(C)c1cc(OC)c([C@@H]2C=C(CO)[C@@H]3C[C@H]2C3(C)C)c(OC)c1` [HU308], for which the half-maximal inhibitory concentration (IC50) came to 54.2 nM.

(Values after PMC8838898, “Identification of Novel Cannabinoid CB2 Receptor Agonists from Botanical Compounds and Preliminary Evaluation of Their Anti-Osteoporotic Effects” (Molecules, 2022).)
